In patent publication US10336717B2, “Inhibitors of beta-secretase” (Vitae Pharmaceuticals, Inc., priority 2009, dated 2019):

Target: truncated human beta-secretase (residues 1-458, His6-tagged) (Homo sapiens (Human), UniProt P56817)
Assay: BACE enzyme assay (fluorescence quench, Example 434A)
Format: biochemical

SMILES: COC1CCC2(CC1)Cc1ccc(C#CC3CCCC3)cc1C21N=C(N)N(C)C1=O (stereo not shown) [Compound 147]
- IC50: 2.2 nM
